According to PubChem BioAssay AID435005 (Broad Institute, 2010):
The list shows a part of the results, in another mix than the full data. Calls of active or inactive are those of the source.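 Rule for the calls: active = Every replicate reaches about 75%, or at least half do and their mean reaches it too (limit read from the data); inconclusive = At least half of replicates reach the limit but their mean does not; inactive = Under half of replicates reach the limit.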

Experiment: inhibitors of cytokine-induced beta cell apoptosis, primary screen, luminescence (AID 435005);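 note: 0% = cytokine-treated negative control wells and 100% = positive control rescue; higher means more ATP so stronger rescue from cytokine killing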
Conditions: INS-1E cytokine-induced death, ATP luminescence, 48 h; stronger effect = higher value; percent of positive-control rescue, neutral wells zero; concentration not given here

Compound	protection from apoptosis
CN(C)c1ccc(C(=O)NCC2(N3CCCCC3)CCCCC2)cc1	inactive: -6.55%
O=C(NCC1(N2CCCCC2)CCCCC1)c1ccco1	inactive: 0.524%
CCN1CCC(Nc2cccc(F)c2)CC1	inactive: 0.623%
Fc1ccccc1NC1CCN(Cc2ccccc2)CC1	inactive: -2%
Cc1ccc(C(=O)NCC2(N3CCCCC3)CCCCC2)o1	inactive: 0.319%
COc1cc(OC)cc(C(=O)NCC2(N3CCCCC3)CCCCC2)c1	inactive: -3.88%
CN1CCC(Nc2ccc(Cl)cc2)CC1	inactive: 0.511%
CCC(CO)(C(=O)OC1CN2CCC1CC2)c1ccccc1 (stereo not given)	inactive: -3.75%
COc1cc(OC)cc(C(=O)NCC2(N3CCOCC3)CCCCC2)c1	inactive: -4.29%
COc1cccc(C(=O)N(c2cc(C)cc(C)c2)C2CCN(C(=O)OC(C)(C)C)CC2)c1	inactive: 15.1%
CCCOc1ccc(C(=O)NCC2(N(C)C)CCCCC2)cc1	inactive: 1.34%
O=C(O)C1(Nc2ccccc2)CCN(Cc2ccccc2)CC1	inactive: -6.96%
CC(C)(C)OC(=O)N1CCC(Nc2ccccc2)CC1	inactive: 0.348%
CN1CCC(Nc2ccc(F)c(Cl)c2)CC1	inactive: 4.06%
CCOc1ncccc1C(=O)NCC1(N2CCOCC2)CCCCC1	inactive: 1.45%
CCc1cc(C(=O)NCC2(N3CCCCC3)CCCCC2)sc1C	inactive: -5.8%
N/C(=N\O)c1c(N)no[n+]1[O-]	inactive: -0.134%
CCOC(=O)N1CCC(Nc2ccc(C)cc2)CC1	inactive: -12%
COc1ccc(C(=O)NCC2(N3CCOCC3)CCCCC2)cc1OC	inactive: -10.2%
O=C(NCC1(N2CCOCC2)CCCCC1)c1cc(Br)ccc1Cl	inactive: 21.3%

Compound	protection from apoptosis
COc1cc(C(=O)NCC2(N3CCOCC3)CCCCC2)cc(OC)c1C	inactive: 4.34%
CCCN1CCC(Nc2cc(OC)cc(OC)c2)CC1	inactive: -17.6%
c1ccc(CN2CCC(Nc3ccccc3)CC2)cc1	inactive: -3.77%
CN(C)C1(CNC(=O)c2cccc(C#N)c2)CCCCC1	inactive: -3.11%
CC(C)(C)OC(=O)N1CCC(N(C(=O)c2ccccc2)c2ccc(Cl)cc2)CC1	inactive: 6.61%
N#Cc1ccc(C(=O)NCC2(N3CCCCC3)CCCCC2)cc1	inactive: -3.29%
CN1CCN(CCOC(=O)C(O)(c2ccccc2)c2ccccc2)CC1	inactive: 2.61%
COc1ccc(NC2CCN(C(=O)OC(C)(C)C)CC2)cc1	inactive: 3.24%
COc1cc(C(=O)NCC2(N3CCCCC3)CCCCC2)ccc1OC(F)F	inactive: -1.41%
O=C(NCC1(N2CCOCC2)CCCCC1)c1cc(=O)[nH]c2ccccc12	inactive: -7.7%
O=C(NCC1(N2CCCCC2)CCCCC1)c1cccc(C(F)(F)F)c1	inactive: -2.1%
O=C(NCC1(N2CCCCC2)CCCCC1)c1cccc([N+](=O)[O-])c1	inactive: -3.87%
N#CC1(Nc2ccccc2)CCN(CCc2ccccc2)CC1	inactive: -2.14%
CCN1CCC(Nc2ccc(Cl)cc2)CC1	inactive: 1.53%
O=C(NCC1(N2CCCCC2)CCCCC1)c1ccc(OC(F)F)cc1	inactive: 3.69%
CCCOc1ccc(C(=O)NCC2(N(C)C)CCCCC2)cc1OC	inactive: 2.59%
O=C(NCC1(N2CCCCC2)CCCCC1)c1cncc(Br)c1	inactive: -7.49%
CN1CCC(Nc2cccc(F)c2)CC1	inactive: -6.42%
O=C(NCC1(N2CCOCC2)CCCCC1)c1cc(F)c(F)cc1Cl	inactive: -5.15%
CN(C)c1cccc(C(=O)NCC2(N3CCCCC3)CCCCC2)c1	inactive: 8.27%

Compound	protection from apoptosis
CC(C)c1ccc(NC2CCN(C(=O)OC(C)(C)C)CC2)cc1	inactive: 10.9%
CCOC(=O)N1CCC(Nc2ccc(OC)cc2)CC1	inactive: -2.74%
COc1ccc(Cl)cc1C(=O)NCC1(N2CCOCC2)CCCCC1	inactive: 3.9%
O=C(OC1CN2CCC1CC2)C1c2ccccc2Oc2ccccc21 (stereo not given)	inactive: -15.6%
N#CC1(Nc2ccccc2)CCN(Cc2ccccc2)CC1	inactive: 2.23%
O=C(NCC1(N2CCCCC2)CCCCC1)c1ccc(Cl)s1	inactive: -10.4%
O=C(NCC1(N2CCOCC2)CCCCC1)c1cc2ccccc2o1	inactive: -3.95%
Cc1cc(C)cc(N(C(=O)c2ccccc2)C2CCN(C(=O)OC(C)(C)C)CC2)c1	inactive: 5.64%
O=C(NCC1(N2CCCCC2)CCCCC1)c1ccc(Cl)nc1	inactive: -3.51%
CSc1ccccc1C(=O)NCC1(N2CCCCC2)CCCCC1	inactive: -0.917%
O=C(NCC1(N2CCCCC2)CCCCC1)c1cccs1	inactive: -3.74%
O=C(NCC1(N2CCCCC2)CCCCC1)c1ccc(=O)[nH]c1	inactive: -4.59%
COc1ccc(C(=O)NCC2(N3CCCCC3)CCCCC2)c(OC)c1OC	inactive: -5.77%
CC(C)(C)OC(=O)N1CCC(N(C(=O)c2ccccc2)c2ccc(F)cc2)CC1	inactive: -2.83%
COc1ccc(C(=O)NCC2(N3CCCCC3)CCCCC2)cc1	inactive: -6%
Cc1ccc(OCC(C)C)c(CN(CCCl)CCCl)c1	inactive: -5.17%
COc1cc(C(=O)NCC2(N(C)C)CCCCC2)ccc1OC(F)F	inactive: 1.64%
CCOC(=O)N1CCC(Nc2cccc(C)c2)CC1	inactive: 7.72%
COc1ccc(NC2CCN(CCc3ccccc3)CC2)c(OC)c1	inactive: -0.834%
CCOC(=O)N1CCC(Nc2ccc(F)cc2)CC1	inactive: -6.49%
